Data published in patent US20210094899A1, “ACRYLIC ACID ANALOGS” (Recurium IP Holdings, LLC, priority 2017, published 2021).

Chains of the proteins cited; added tags and fusions are not shown.
UniProt P03372, whole entry: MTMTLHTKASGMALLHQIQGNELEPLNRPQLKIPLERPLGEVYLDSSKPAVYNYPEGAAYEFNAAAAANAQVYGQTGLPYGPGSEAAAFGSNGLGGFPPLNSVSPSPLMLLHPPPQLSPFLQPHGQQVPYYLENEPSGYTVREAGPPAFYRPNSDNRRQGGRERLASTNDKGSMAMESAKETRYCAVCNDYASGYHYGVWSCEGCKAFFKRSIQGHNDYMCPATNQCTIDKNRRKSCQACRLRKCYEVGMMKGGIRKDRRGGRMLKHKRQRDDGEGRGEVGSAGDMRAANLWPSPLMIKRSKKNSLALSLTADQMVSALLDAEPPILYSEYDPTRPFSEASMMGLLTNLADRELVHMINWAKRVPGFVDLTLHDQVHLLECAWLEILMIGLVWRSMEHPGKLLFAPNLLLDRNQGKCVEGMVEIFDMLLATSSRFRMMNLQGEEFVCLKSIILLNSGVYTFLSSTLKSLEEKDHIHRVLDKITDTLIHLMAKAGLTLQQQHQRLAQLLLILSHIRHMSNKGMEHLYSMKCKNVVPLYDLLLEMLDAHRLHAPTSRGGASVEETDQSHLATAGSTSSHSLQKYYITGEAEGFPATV

Biological target: T1, ERα (ESR1 protein) (Homo sapiens, UniProt P03372)
T1 construct: After incubating cells with the indicated compounds for 18-24 hours, cell lysates were prepared; endogenous in cells; host or cells: MCF-7
Assay: ERα EC50 determination (Western blot band density, MCF-7 cells)
Format: cell-based
Text: A DMSO control was included to enable a determination of the relative efficacy of test compounds. […] The protein concentration was quantified using BCA kit.

- EC50: < 0.025 µM
Structure (SMILES): C[C@@H]1Cc2c([nH]c3ccccc23)[C@@H](c2c(F)cc(/C=C/C(=O)O)cc2F)N1CC(C)(C)F [AZD9496]
